The values below come from patent US12139488B2, “Pyrido[3,2-d]pyrimidine compounds uses thereof for treating a proliferative disease” (Universite de Montreal, priority 2021, dated 2024).

Assay [1] relates to pERK in Mewo cells (NF1 LOF). Nature of the assay: Phospho-ERK inhibition (AlphaLISA), Mewo. As to conditions: for pIC50: read-out: Mewo pERK IC50; for Mewo pERK % Ymin: value in parentheses. As to the method: (§1) All cancer cell lines (A375, A101D, A2058, RKO, HT29 SK-MEL 30, IPC298, HepG2, HCT-116, Lovo, SWV620, SW480, NCI-H358, NCI-H2122, Calu-6, NCIH2087, NCIH1755, NCIH1666 and Mewo) were obtained from ATCC and cultured in RPMI-1640 medium (Gibco) supplemented with 5% heat inactivated fetal bovine serum (FBS, Wisent) at 37° C. under 5% CO2. Cells were maintained in T175 flasks (Greiner). They were passaged by removing the culture medium, washing once in 10 mL of room temperature Phosphate Buffered Saline (PBS; Wisent) and incubating at 37° C. with 2 mL of 0.05% Trypsin (Thermo-Fisher). Trypsin was then inactivated by adding complete growth medium and the cells were then replated in a T175 culture dish at the appropriate dilution. All cell lines were routinely tested for mycoplasma contamination. Tissue type and mutational status of each cell line can be found in Table B.
AlphaLISA® SureFire® Ultra™ p-ERK 1/2 (Thr202/Tyr204) analysis was conducted on cells plated in 100 μL of complete RPMI-1640 growth medium in 96-well flat-bottomed transparent dishes (Costar) at a density indicated in Table C. Cells were maintained overnight at 37° C. under 5% CO2 before treatment with compounds' dilution series for one hour. The cell density in cells/cm^2 corresponds to cell number divided by the area of one well of a 96-well plate ([…]).
In a dilution series 100 μL/well of test substance dilution prepared in complete RPMI-1640 growth media was added to the cells. The dilution series is selected so that ten concentrations cover a range from 10 μM to 0.33 nM. If necessary the initial concentration of 10 μM is increased to 100 μM or lowered to 1 μM (as in the case of A375 and H1666 cells, which are generally more sensitive to the compounds) and further dilution is carried out accordingly. The final concentration of DMSO in the assay is set at 0.5%.
After treatment, media was removed and cells were lysed in 50 μL of 1× AlphaScreen Ultra Lysis Buffer (Perkin Elmer). The AlphaLISA® SureFire® Ultra™ p-ERK 1/2 (Thr202/Tyr2O4) (PerkinElmer) reactions were performed with 5 μL of cell lysate according to the manufacturer's specifications in 384-well proxyplates (Perkin Elmer) followed by overnight incubation of the reactions at room temperature in a humidified chamber. After completion of the reactions, the signals were recorded on an EnVision plate reader (Perkin Elmer) using built in AlphaLISA® settings.
The effect of each compound dilution on the pERK signal was expressed in % inhibition and calculated as follows. An internal 100% inhibition control ([…] trametinib, cat #HY-10999; MedChem Express; CAS #871700-17-3) was included in each plate and used as a measure of pERK background. First, the value obtained for trametinib was subtracted from each data point. The average of DMSO (vehicle) controls (set as 0% inhibition) was established and used to calculate % inhibition: % inhibition=100*(1-((pERK signalcompound)/(pERK signalDMSO)))
The ability of each compound to inhibit pERK signal was expressed as an IC50 value obtained by plotting the inhibition values for each data point of a dilution series and fitting the obtained curves using a log(agonist) versus response-variable slope (four parameters) function using GraphPadPrism (V7.0) or Dotmatics Screening Ultra platform.
When present, paradoxical pERK induction is inferred from the negative % inhibition values observed in the pERK IC50 curves of a compound.

Assay [2] has as its system A101D cells (BRAF V600E). Nature of the assay: Proliferation inhibition (CellTiter-Glo), A101D. As to conditions: read-out: A101D Prolif. EC50, 3 days. As for the experimental part:
as §1
(§2) CellTiter-Glo® viability analysis was conducted on cells plated in 100 μL of complete RPMI-1640 growth medium in 96-well flat-bottomed white opaque plates (Greiner or Croning) at a density indicated in Table E (for each CCL, number of cells plated per well of a 96-well plate to perform the CellTiter-Glo® cell viability assay). The cell density in cells/cm^2 would correspond to cell number divided by the area of one well of a 96-well plate (0.32 cm^2). Cells were maintained overnight at 37° C. under 5% CO2 before treatment with compounds' dilution series for 3 days.
(§3) In a dilution series 100 μL/well of test substance dilution prepared in complete RPMI-1640 growth media was added to the cells plated initially in 100 μL of growth media. The dilution series is selected so that ten concentrations cover a range from 10 μM to 0.33 nM. If necessary (as in the case of A375 cells, which were more sensitive to the compounds) the initial concentration of 10 μM is lowered to 1 μM and further dilution is carried out accordingly. The final concentration of DMSO in the assay is set at is 0.5%.
(§4) After 3 days of incubation, the growth media were removed by aspiration and 60 μL of diluted CellTiter-Glo® reagent (10 μL CellTiter-Glo® reagent+50 μL of PBS) was added to each well. Cells were allowed to lyse and to equilibrate in CellTiter-Glo® reagent by 5 min incubation on a plate shaker followed by 10 min incubation at room temperature. Luminescence signals were then acquired on a Synergy Neo2 plate reader (Biotek).
(§5) The effect of each compound dilution on the proliferation of cancer cell lines was expressed in % inhibition and calculated as follows. An internal 100% inhibition control (1 μM of trametinib; cat #HY-10999; MedChem Express; CAS #871700-17-3) was included in each plate and used as a measure of CellTiter-Glo® signal background. The value obtained for trametinib was subtracted from each data point. The average of DMSO (vehicle) controls (set as 0% inhibition) was established and used to calculate % inhibition: % inhibition=100*(1−((CellTiter-Glo® signalcompound)/(CellTiter-Glo® signalDMSO)))
(§6) The ability of each compound to inhibit proliferation was expressed as a EC50 value obtained by plotting the effect values for each data point of a dilution series and fitting the obtained curves using a log(agonist) versus response-variable slope (four parameters) function using GraphPadPrism (V7.0) or Dotmatics Screening Ultra platform.

Assay [3] concerns NCI-H358 cells (KRAS-G12C). Description: Proliferation inhibition (CellTiter-Glo), NCI-H358. As to conditions: read-out: NCI-H358 Prolif. EC50; NCI-H358, 3 days. As for the experimental part:
as §1, §2, §3, §4, §5, §6

Assay [4] concerns Calu-6 cells (KRAS Q61K). Nature of the assay: Proliferation inhibition (CellTiter-Glo), Calu-6. The note with it: read-out: Calu6 Prolif. EC50; Calu6, 3 days. As for the experimental part: as §1, §2, §3, §4, §5, §6
The test system of assay [5] is Mewo cells (NF1 LOF). Nature of the assay: Proliferation inhibition (CellTiter-Glo), Mewo. The note with it: read-out: Mewo Prolif. EC50, 3 days. As to the method:
as §1, §2, §3, §4, §5, §6

In assay [6] the test system is NCIH2087 cells (BRAF L597V; KRAS Q61K). Nature of the assay: Proliferation inhibition (CellTiter-Glo), NCIH2087. The note with it: read-out: NCIH2087 Prolif. EC50; NCIH2087, 3 days. As for the experimental part:
as §1, §2, §3, §4, §5, §6

pEC50, pIC50: −log10 of the molar value. Some results are limits rather than exact numbers.

Regarding `O=S(=O)(Nc1ccc(F)c(Nc2ncnc3ccc(-n4cnc5c(N6CCC(O)(C(F)(F)F)CC6)cccc54)nc23)c1F)c1cccc(Cl)c1Cl`, in assay [1], the negative logarithm of the IC50 (pIC50) was 6.52 to 7.52. Besides, the “Mewo pERK % Ymin” value in assay [1] is −4%. Moreover, the pEC50 was over 7.52 in assay [2]; over 7.52 in assay [3]; 5.52 to 6.52 in assay [4]; over 7.52 in assay [5]; over 7.52 in assay [6].

`COCCOc1cccc2c1nnn2-c1ccc2ncnc(Nc3c(F)ccc(NS(=O)(=O)c4cccc(Cl)c4Cl)c3F)c2n1`: the pIC50 in assay [1] is 6.52 to 7.52. Moreover, in assay [1], the “Mewo pERK % Ymin” value is given as −11%. Also, the pEC50 in assay [2] was over 7.52; in assay [3], over 7.52; in assay [4] it was 5.52 to 6.52; in assay [5] it was over 7.52.

Regarding `CS(=O)(=O)C1CCN(c2cccc3c2nnn3-c2ccc3ncnc(Nc4c(F)ccc(NS(=O)(=O)c5cccc(Cl)c5Cl)c4F)c3n2)CC1`, the pIC50 in assay [1] was 6.52 to 7.52. For the same compound, the “Mewo pERK % Ymin” value in assay [1] is 15%. In addition, the pEC50 in assay [2] was over 7.52; in assay [3], over 7.52; in assay [4] it was 5.52 to 6.52; in assay [5] it was 5.52 to 6.52; in assay [6], 5.52 to 6.52.

For `O=S(=O)(CCCN1CCOCC1)c1cn(-c2ccc3ncnc(Nc4c(F)ccc(NS(=O)(=O)c5cccc(Cl)c5Cl)c4F)c3n2)c2ccccc12`, the pIC50 in assay [1] is 6.52 to 7.52. Moreover, in assay [1], the “Mewo pERK % Ymin” value is −13%. Moreover, the pEC50 is over 7.52 in assay [2]; over 7.52 in assay [3]; 5.52 to 6.52 in assay [4]; over 7.52 in assay [5]; 5.52 to 6.52 in assay [6].

Turning to `COc1ccc(S(=O)(=O)Nc2ccc(F)c(Nc3ncnc4ccc(-n5cc(S(=O)(=O)N(C)CCN(C)C)c6ccccc65)nc34)c2F)c(C)c1F`, the pIC50 in assay [1] was 6.52 to 7.52. In addition, the “Mewo pERK % Ymin” value in assay [1] is −14%. Also, the pEC50 in assay [2] is over 7.52; in assay [3], over 7.52; in assay [4], over 7.52; in assay [5], over 7.52; in assay [6], 5.52 to 6.52.

On to `CCC1(O)CCN(c2cccc3c2ncn3-c2ccc3ncnc(Nc4c(F)ccc(NS(=O)(=O)c5cccc(Cl)c5Cl)c4F)c3n2)CC1`, for which the pIC50 in assay [1] was 6.52 to 7.52. For the same compound, in assay [1], the “Mewo pERK % Ymin” value was −12%. Moreover, the pEC50 in assay [2], in assay [3], in assay [4], in assay [5] and in assay [6] was over 7.52 each time.

Turning to `CN(CCN1CCOCC1)S(=O)(=O)c1cn(-c2ccc3ncnc(Nc4c(F)ccc(NS(=O)(=O)c5cccc(Cl)c5Cl)c4F)c3n2)c2ccccc12`, the pIC50 in assay [1] was 6.52 to 7.52. In addition, in assay [1], the “Mewo pERK % Ymin” value amounted to 8%. Further, the pEC50 is over 7.52 in assay [2]; over 7.52 in assay [3]; over 7.52 in assay [4]; over 7.52 in assay [5]; 5.52 to 6.52 in assay [6].

As to `Cc1c(F)cccc1S(=O)(=O)Nc1ccc(F)c(Nc2ncnc3ccc(-n4cnc5c(-c6cccnc6)cccc54)nc23)c1F`, in assay [1], the pIC50 is 6.52 to 7.52. For the same compound, the “Mewo pERK % Ymin” value in assay [1] turned out to be 3%. The pEC50 in assay [2] was over 7.52; in assay [3] it was over 7.52; in assay [4] it was 5.52 to 6.52; in assay [5], 5.52 to 6.52; in assay [6] it was 5.52 to 6.52.

As to `Cc1c(Cl)cccc1S(=O)(=O)Nc1ccc(F)c(Nc2ncnc3ccc(-n4cnc5c(N)cccc54)nc23)c1F`, the pIC50 in assay [1] was 6.52 to 7.52. Further, in assay [1], the “Mewo pERK % Ymin” value is −1%. Also, the negative logarithm of the EC50 (pEC50) in assay [2] is over 7.52; in assay [3], 5.52 to 6.52; in assay [4], 5.52 to 6.52; in assay [5] it was 5.52 to 6.52; in assay [6] it was 5.52 to 6.52.

Turning to `O=S(=O)(Nc1ccc(F)c(Nc2ncnc3ccc(-n4nnc5ccccc54)nc23)c1F)c1cccc(Cl)c1Cl`, in assay [1], the pIC50 is 6.52 to 7.52. The “Mewo pERK % Ymin” value in assay [1] is −17%. Moreover, the negative logarithm of the EC50 (pEC50) is over 7.52 in assay [2], over 7.52 in assay [3], 5.52 to 6.52 in assay [4] and over 7.52 in assay [5].

Consider `Cc1c(Cl)cccc1S(=O)(=O)Nc1ccc(F)c(Nc2ncnc3ccc(-n4cc(C(=O)N5CCN(C)CC5)c5ccccc54)nc23)c1F`, for which the pIC50 in assay [1] is 6.52 to 7.52. The “Mewo pERK % Ymin” value in assay [1] is reported as −6%. For the same compound, the pEC50 in assay [2] was over 7.52; in assay [3] it was 5.52 to 6.52; in assay [4], 5.52 to 6.52; in assay [5], 5.52 to 6.52; in assay [6], 5.52 to 6.52.

Consider `O=S(=O)(Nc1ccc(F)c(Nc2ncnc3ccc(-n4cnc5c(N6CCC7(CCCC7)CC6)cccc54)nc23)c1F)c1cccc(Cl)c1Cl`, for which, in assay [1], the negative-log IC50 (pIC50) is 6.52 to 7.52. The “Mewo pERK % Ymin” value in assay [1] is reported as 3%. In addition, the negative-log EC50 (pEC50) in assay [2] is over 7.52; in assay [3], over 7.52; in assay [4], 5.52 to 6.52; in assay [5] it was over 7.52; in assay [6], over 7.52.

As for `Cc1c(Cl)csc1S(=O)(=O)Nc1ccc(F)c(Nc2ncnc3ccc(-n4cc(S(=O)(=O)N(C)CCN(C)C)c5ccccc54)nc23)c1F`, in assay [1], the pIC50 is 6.52 to 7.52. The “Mewo pERK % Ymin” value in assay [1] is on record as −8%. For the same compound, the pEC50 in assay [2], in assay [3], in assay [4], in assay [5] and in assay [6] was over 7.52 in each case.

In the case of `Cc1c(F)cccc1S(=O)(=O)Nc1ccc(F)c(Nc2ncnc3ccc(-n4nc(C(=O)N(C)Cc5cccnc5)c5ccccc54)nc23)c1F`, the pEC50 in assay [2] is over 7.52; in assay [3], over 7.52; in assay [4] it was over 7.52; in assay [5] it was 5.52 to 6.52; in assay [6], over 7.52.
